# Permeability data for macrocyclic peptides

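Conditions beyond the assay type are not listed; see the original paper. The list need not hold all peptides of the study. Peptides that the database sets to -10, its floor, are left out.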

PAMPA measures passive passage through an artificial lipid membrane.
Permeability is given as log10 of P in cm/s; higher (less negative) is more permeable.
A value with < or ≤ is an upper limit.

| SMILES | PAMPA (log10 cm/s) |
|---|---|
| CC(C)C[C@@H]1NC(=O)[C@H](C)N(C)C(=O)[C@H]2CCCN2C(=O)[C@H](CC(C)C)NC(=O)[C@H](C)N(C)C(=O)[C@H](CC(C)C)NC(=O)[C@H]([C@@H](C)O)N(C)C(=O)[C@H]2CCCN2C(=O)[C@H](CC(C)C)NC(=O)[C@H]([C@@H](C)O)N(C)C1=O | < -6.50 |
| CC(C)C[C@@H]1NC(=O)[C@H](C)N(C)C(=O)[C@H]2CCCN2C(=O)[C@H](CC(C)C)NC(=O)[C@H]([C@@H](C)O)N(C)C(=O)[C@H](CC(C)C)NC(=O)[C@H](C)N(C)C(=O)[C@H]2CCCN2C(=O)[C@H](CC(C)C)NC(=O)[C@H]([C@@H](C)O)N(C)C1=O | < -6.50 |
| CC(C)C[C@@H]1NC(=O)[C@H](C)N(C)C(=O)[C@H]2C[C@H](O)CN2C(=O)[C@H](CC(C)C)NC(=O)[C@H](C)N(C)C(=O)[C@H](CC(C)C)NC(=O)[C@H](C)N(C)C(=O)[C@H]2CCCN2C(=O)[C@H](CC(C)C)NC(=O)[C@H](C)N(C)C1=O | < -6.90 |
| CC(C)C[C@@H]1NC(=O)[C@H](C)N(C)C(=O)[C@H](CC(C)C)NC(=O)[C@H](C(C)C)N(C)C(=O)[C@H]2CCCN2C(=O)[C@H](CC(C)C)NC(=O)[C@H](C)N(C)C(=O)[C@H](CC(C)C)NC(=O)[C@H](C(C)C)N(C)C(=O)[C@@H](C)N(C)C1=O | -4.30 |
| CC(C)C[C@@H]1NC(=O)[C@H]([C@@H](C)O)N(C)C(=O)[C@H]2CCCN2C(=O)[C@H](CC(C)C)NC(=O)[C@H]([C@@H](C)O)N(C)C(=O)[C@H](CC(C)C)NC(=O)[C@H]([C@@H](C)O)N(C)C(=O)[C@H]2CCCN2C(=O)[C@H](CC(C)C)NC(=O)[C@H]([C@@H](C)O)N(C)C1=O | < -6.50 |
| CC(C)C[C@@H]1NC(=O)[C@H]([C@@H](C)O)N(C)C(=O)[C@H]2C[C@H](O)CN2C(=O)[C@H](CC(C)C)NC(=O)[C@H](C)N(C)C(=O)[C@H](CC(C)C)NC(=O)[C@H](Cc2ccccc2)N(C)C(=O)[C@H]2C[C@H](O)CN2C(=O)[C@H](CC(C)C)NC(=O)[C@H](C)N(C)C1=O | < -6.90 |
| CC(C)C[C@@H]1NC(=O)[C@H](C)N(C)C(=O)[C@H](CC(C)C)NC(=O)[C@H](Cc2ccccc2)N(C)C(=O)[C@@H](C)N(C)C(=O)[C@H](CC(C)C)NC(=O)[C@H](C)N(C)C(=O)[C@H](CC(C)C)NC(=O)[C@H](Cc2ccccc2)N(C)C(=O)[C@@H](C)N(C)C1=O | -5.90 |
| CC(C)C[C@@H]1NC(=O)[C@H](C)N(C)C(=O)[C@H]2CCCN2C(=O)[C@H](CC(C)C)NC(=O)[C@H](C)N(C)C(=O)[C@H](CC(C)C)NC(=O)[C@H](C)N(C)C(=O)[C@H]2CCCN2C(=O)[C@H]([C@@H](C)O)NC(=O)[C@H](C)N(C)C1=O | -6.50 |
| CC(C)C[C@@H]1NC(=O)[C@H](C)N(C)C(=O)[C@H]2CCCN2C(=O)[C@H](CC(C)C)NC(=O)[C@H](C)N(C)C(=O)[C@H](CC(C)C)NC(=O)[C@H](C)N(C)C(=O)[C@H]2CCCN2C(=O)[C@H](CC(C)C)NC(=O)[C@H]([C@@H](C)O)N(C)C1=O | -5.80 |

Values of Wang et al. 2021, doi:10.1021/acs.jmedchem.1c00775, as listed in CycPeptMPDB.